Marks after values point to notes of the source that are not given here.

One series deals with E. coli. Nature of the series: Antibacterial activity (MIC) against E. coli. Format: cell-based. The following applies: minimum inhibitory concentration. From the text:
(§1) The antibacterial activity of the five peptides was explored with E. coli and S. aureus. […] Electrostatic interactions between cationic AMPs and the negatively charged bacterial membrane are believed to be the first step in antibacterial action, thereby explaining the improved antibacterial activity when going from P11 LRR (+4 charge) to P14LRR (+8 charge). […] Replacing the fluorescein moiety in P14LRR with an acetyl group led to no discernible change in activity.

A further series concerns S. aureus. Description: Antibacterial activity (MIC) against S. aureus. It is filed as cell-based. The following applies: minimum inhibitory concentration.
Description: as §1

For series [1], the system named is human red blood cells (hRBCs). The following applies: 1 h of incubation.

Turning to `CC[C@H](C)[C@H](NC(=O)CN)C(=O)NCC(=O)N[C@@H](C)C(=O)N[C@H](C(=O)N[C@@H](CC(C)C)C(=O)N[C@@H](CCCCN)C(=O)N[C@H](C(=O)N[C@@H](CC(C)C)C(=O)N[C@H](C(=O)N[C@H](C(=O)NCC(=O)N[C@@H](CC(C)C)C(=O)N1CCC[C@H]1C(=O)N[C@@H](C)C(=O)N[C@@H](CC(C)C)C(=O)N[C@H](C(=O)N[C@@H](CO)C(=O)N[C@@H](Cc1c[nH]c2ccccc12)C(=O)N[C@H](C(=O)N[C@@H](CCCCN)C(=O)N[C@@H](CCCNC(=N)N)C(=O)N[C@@H](CCCCN)C(=O)N[C@@H](CCCNC(=N)N)C(=O)N[C@@H](CCC(N)=O)C(=O)N[C@@H](CCC(N)=O)C(N)=O)[C@@H](C)CC)[C@@H](C)CC)[C@@H](C)O)[C@@H](C)O)C(C)C)C(C)C` [Melittin], the “E. coil MIC” value with E. coli stood at 4.6 µM. Also, the “S. aureus MIC” value in the series on S. aureus was 2.1 µM. Also, the Hemolysis in series [1] is 5^[b] μM.
